Test system: GBM8 cells
Conditions: EGFR inhibitor combined with 1-(3,4-dichlorophenyl)-3-(4-(3-(dimethylamino)propylamino)-6-methylpyrimidin-2-yl)urea, EGFR inhibitor added ~24 h after olig2 inhibitor, viability 72 hours later, CI<1 indicates synergy

Row | Compound | GBM8 CI (combination index)
1 | COc1cc2c(Nc3ccc(Cl)c(Cl)c3F)ncnc2cc1OC[C@@H]1C[C@@H]2CN(C)C[C@@H]2C1 [XL-647] | 0.75
2 | C=CC(=O)Nc1cccc(Nc2nc(Nc3ccc(N4CCN(C(C)=O)CC4)cc3OC)ncc2C(F)(F)F)c1 [Rocilitinib] | 0.70
